Amino acid sequences for entries named in this document (tags omitted). Residues count along the entry.
UniProt P07948, whole entry: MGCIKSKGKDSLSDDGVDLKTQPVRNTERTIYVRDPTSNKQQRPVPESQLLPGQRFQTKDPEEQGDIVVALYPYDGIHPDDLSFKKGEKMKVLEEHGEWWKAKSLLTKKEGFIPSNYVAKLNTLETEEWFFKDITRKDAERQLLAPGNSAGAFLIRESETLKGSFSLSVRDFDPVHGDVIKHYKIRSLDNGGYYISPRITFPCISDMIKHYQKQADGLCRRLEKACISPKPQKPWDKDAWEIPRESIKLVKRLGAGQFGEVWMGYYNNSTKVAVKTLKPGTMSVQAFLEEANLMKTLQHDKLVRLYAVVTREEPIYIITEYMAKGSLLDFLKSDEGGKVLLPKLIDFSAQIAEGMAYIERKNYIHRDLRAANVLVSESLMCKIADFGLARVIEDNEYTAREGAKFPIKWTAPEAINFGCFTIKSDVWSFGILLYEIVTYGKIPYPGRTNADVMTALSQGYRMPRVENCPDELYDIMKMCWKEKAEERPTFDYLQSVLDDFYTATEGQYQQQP
UniProt P22607, 23-806 limits assumed: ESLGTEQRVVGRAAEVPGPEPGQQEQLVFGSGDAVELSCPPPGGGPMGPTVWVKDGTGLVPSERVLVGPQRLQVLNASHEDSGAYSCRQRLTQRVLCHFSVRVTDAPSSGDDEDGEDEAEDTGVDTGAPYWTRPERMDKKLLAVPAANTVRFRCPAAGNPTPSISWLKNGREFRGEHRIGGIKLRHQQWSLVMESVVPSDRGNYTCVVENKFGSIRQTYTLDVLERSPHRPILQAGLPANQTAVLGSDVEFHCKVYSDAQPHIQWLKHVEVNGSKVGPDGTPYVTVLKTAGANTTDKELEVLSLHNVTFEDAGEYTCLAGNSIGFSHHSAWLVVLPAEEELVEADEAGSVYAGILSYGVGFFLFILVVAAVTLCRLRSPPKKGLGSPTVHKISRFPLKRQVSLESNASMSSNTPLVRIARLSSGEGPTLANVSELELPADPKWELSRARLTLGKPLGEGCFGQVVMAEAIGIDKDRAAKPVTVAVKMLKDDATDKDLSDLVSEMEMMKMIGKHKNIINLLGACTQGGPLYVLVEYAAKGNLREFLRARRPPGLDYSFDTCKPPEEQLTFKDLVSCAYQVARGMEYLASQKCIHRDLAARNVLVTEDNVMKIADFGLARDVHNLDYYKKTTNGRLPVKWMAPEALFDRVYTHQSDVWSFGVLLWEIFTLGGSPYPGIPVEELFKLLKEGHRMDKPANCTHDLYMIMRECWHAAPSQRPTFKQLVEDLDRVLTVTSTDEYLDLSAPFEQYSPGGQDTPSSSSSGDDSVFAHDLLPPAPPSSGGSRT
UniProt P51813, whole entry: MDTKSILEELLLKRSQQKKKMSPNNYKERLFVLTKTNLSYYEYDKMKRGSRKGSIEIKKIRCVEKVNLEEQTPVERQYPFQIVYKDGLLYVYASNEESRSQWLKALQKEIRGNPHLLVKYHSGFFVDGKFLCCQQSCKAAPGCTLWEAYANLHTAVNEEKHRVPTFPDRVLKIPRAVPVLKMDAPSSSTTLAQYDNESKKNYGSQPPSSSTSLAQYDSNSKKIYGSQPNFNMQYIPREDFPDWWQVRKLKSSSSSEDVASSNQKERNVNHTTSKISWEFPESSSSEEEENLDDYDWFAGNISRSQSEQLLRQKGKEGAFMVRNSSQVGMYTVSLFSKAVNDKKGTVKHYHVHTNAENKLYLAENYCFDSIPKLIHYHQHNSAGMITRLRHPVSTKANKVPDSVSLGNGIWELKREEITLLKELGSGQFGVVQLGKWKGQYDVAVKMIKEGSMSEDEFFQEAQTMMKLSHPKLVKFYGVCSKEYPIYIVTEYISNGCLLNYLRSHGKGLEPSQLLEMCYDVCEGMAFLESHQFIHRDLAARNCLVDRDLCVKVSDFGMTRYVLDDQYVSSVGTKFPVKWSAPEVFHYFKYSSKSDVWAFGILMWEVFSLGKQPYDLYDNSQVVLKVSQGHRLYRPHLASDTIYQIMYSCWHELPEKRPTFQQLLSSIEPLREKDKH
UniProt P54760, 16-987 limits assumed: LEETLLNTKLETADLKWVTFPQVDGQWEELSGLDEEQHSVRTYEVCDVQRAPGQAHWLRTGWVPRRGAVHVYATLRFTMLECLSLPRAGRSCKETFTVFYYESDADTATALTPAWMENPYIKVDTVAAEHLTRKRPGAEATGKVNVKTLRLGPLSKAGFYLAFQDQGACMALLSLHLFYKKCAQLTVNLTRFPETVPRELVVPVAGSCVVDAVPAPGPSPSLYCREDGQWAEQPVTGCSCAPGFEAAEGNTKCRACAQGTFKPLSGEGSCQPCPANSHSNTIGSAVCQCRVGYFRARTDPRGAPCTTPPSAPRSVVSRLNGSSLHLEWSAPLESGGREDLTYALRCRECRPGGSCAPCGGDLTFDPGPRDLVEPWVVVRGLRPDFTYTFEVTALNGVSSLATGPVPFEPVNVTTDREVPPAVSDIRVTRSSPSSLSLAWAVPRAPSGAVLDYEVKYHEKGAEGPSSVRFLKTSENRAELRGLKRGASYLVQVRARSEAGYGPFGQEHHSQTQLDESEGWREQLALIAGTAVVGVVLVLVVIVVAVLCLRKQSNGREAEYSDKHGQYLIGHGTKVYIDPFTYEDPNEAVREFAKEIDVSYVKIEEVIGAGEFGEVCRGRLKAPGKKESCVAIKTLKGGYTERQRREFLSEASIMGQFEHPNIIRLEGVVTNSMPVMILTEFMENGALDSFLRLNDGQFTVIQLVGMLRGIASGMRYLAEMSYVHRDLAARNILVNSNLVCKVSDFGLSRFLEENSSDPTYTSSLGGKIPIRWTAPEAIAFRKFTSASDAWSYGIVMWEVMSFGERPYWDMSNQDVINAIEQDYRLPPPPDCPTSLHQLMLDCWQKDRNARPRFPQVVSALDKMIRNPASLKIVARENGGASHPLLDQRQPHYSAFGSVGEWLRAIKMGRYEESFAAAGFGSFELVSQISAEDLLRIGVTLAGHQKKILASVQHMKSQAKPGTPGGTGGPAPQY
UniProt Q06187, whole entry: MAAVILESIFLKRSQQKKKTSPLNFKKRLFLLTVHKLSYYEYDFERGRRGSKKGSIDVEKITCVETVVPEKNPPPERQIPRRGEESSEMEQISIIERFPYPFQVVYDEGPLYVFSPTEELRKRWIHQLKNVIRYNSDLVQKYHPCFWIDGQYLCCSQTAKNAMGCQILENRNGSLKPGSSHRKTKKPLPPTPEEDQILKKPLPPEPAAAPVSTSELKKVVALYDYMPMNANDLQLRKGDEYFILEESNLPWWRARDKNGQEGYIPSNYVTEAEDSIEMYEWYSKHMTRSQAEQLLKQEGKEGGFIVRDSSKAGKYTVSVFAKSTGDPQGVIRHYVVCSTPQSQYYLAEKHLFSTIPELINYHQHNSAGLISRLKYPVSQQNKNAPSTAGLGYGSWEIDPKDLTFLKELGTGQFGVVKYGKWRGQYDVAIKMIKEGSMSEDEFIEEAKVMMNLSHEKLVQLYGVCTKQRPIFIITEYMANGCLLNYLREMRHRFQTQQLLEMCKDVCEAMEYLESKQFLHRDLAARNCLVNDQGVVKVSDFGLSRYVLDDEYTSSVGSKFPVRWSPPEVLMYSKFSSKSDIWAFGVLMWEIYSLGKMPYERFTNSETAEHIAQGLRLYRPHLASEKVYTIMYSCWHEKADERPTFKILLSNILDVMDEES
UniProt Q13882, whole entry: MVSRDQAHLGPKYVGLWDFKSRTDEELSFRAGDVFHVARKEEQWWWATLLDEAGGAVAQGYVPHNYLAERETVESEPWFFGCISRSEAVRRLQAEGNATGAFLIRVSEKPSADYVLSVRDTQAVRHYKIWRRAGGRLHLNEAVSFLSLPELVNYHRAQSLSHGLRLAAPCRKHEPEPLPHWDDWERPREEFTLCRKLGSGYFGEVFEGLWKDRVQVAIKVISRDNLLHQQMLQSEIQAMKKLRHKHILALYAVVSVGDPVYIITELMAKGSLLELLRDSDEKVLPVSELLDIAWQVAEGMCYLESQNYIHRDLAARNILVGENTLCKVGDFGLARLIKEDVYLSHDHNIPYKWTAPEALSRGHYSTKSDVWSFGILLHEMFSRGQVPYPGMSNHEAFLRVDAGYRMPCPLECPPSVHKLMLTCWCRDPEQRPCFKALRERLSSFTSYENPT
UniProt Q9H2K8, whole entry: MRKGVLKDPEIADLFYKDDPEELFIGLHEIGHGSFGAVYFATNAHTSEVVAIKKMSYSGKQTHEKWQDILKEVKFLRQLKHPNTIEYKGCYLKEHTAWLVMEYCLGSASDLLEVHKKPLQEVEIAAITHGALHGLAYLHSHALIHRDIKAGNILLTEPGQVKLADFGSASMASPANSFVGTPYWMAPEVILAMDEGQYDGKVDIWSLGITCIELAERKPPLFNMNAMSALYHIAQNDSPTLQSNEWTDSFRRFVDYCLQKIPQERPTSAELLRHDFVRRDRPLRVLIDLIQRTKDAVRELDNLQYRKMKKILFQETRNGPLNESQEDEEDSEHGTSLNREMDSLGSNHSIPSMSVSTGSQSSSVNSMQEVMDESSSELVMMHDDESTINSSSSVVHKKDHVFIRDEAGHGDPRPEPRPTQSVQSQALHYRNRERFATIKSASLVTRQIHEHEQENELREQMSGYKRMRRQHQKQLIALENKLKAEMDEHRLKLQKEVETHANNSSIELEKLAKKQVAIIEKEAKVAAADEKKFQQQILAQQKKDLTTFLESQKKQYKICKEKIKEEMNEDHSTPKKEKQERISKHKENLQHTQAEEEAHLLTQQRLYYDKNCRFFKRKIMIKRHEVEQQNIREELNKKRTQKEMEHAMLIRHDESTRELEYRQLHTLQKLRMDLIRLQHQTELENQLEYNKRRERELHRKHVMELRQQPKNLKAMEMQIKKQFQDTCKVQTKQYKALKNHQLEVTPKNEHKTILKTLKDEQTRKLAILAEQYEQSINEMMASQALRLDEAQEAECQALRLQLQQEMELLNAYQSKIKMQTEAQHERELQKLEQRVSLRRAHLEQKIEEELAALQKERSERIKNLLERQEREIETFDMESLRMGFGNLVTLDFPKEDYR
UniProt Q9NY57, whole entry: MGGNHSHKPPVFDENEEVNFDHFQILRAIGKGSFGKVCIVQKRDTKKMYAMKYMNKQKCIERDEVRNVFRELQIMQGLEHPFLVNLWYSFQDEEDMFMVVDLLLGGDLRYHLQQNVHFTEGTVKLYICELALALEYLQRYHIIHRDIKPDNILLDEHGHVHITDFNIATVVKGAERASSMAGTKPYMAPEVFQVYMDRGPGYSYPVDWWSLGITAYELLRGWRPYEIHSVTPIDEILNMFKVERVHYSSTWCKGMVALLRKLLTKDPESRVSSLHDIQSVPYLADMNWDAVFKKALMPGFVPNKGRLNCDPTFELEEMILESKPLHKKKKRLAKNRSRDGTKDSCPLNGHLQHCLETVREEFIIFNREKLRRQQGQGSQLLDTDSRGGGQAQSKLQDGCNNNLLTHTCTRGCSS
UniProt Q9UL54, whole entry: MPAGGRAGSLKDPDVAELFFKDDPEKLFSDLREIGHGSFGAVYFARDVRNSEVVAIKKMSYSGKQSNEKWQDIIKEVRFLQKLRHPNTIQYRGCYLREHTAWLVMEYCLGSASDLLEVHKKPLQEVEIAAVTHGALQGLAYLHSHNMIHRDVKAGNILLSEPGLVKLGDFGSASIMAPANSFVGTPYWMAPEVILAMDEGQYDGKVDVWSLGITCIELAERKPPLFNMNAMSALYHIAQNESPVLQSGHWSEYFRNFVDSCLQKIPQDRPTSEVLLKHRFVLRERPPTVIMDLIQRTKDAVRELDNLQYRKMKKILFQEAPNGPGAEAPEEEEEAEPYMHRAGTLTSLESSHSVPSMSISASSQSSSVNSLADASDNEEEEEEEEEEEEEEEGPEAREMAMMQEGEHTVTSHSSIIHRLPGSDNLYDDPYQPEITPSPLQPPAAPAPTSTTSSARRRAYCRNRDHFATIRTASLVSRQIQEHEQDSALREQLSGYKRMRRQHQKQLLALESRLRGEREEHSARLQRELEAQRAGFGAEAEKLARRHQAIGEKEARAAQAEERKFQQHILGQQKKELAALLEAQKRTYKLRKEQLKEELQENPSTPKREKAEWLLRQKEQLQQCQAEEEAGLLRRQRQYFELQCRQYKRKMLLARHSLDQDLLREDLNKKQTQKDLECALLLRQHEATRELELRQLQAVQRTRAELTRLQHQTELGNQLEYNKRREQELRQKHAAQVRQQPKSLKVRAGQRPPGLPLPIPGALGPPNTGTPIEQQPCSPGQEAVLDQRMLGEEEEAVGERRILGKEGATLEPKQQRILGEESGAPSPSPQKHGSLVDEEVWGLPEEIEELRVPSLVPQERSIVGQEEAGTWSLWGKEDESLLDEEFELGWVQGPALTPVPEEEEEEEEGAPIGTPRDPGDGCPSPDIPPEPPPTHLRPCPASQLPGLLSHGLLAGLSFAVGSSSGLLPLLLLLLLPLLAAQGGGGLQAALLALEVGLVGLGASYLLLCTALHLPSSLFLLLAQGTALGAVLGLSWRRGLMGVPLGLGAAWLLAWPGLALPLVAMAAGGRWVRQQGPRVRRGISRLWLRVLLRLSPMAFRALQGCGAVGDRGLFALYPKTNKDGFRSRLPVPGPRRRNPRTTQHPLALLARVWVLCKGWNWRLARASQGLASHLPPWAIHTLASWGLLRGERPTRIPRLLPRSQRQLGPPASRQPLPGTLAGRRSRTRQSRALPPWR

According to patent US20260382623A1, “NOVEL COMPOUND FOR INHIBITING PROTEIN KINASES AND PHARMACEUTICAL COMPOSITION COMPRISING SAME” (published 2026):

Experiments:
Test in all cases: Full kinase panel inhibition by Example compounds 8 and 51 at 1 μM (Tables 11 to 14; kinase named in each table line)
full kinase panel [1] = molecular target: full kinase panel (Homo sapiens, UniProt O15146); conditions: MUSK
full kinase panel [2] = molecular target: full kinase panel (Homo sapiens, UniProt P04629); conditions: TRKA
full kinase panel [3] = molecular target: full kinase panel (Homo sapiens, UniProt P07332); conditions: FES/FPS
full kinase panel [4] = molecular target: full kinase panel (Homo sapiens, UniProt P07948); conditions: LYN
full kinase panel [5] = molecular target: full kinase panel (Homo sapiens, UniProt P11362); conditions: FGFR1
full kinase panel [6] = molecular target: full kinase panel (Homo sapiens, UniProt P12931); conditions: C-SRC
full kinase panel [7] = molecular target: full kinase panel (Homo sapiens, UniProt P15056); conditions: BRAF
full kinase panel [8] = molecular target: full kinase panel (Homo sapiens, UniProt P16234); conditions: PDGFRA
full kinase panel [9] = molecular target: full kinase panel (Homo sapiens, UniProt P16591); conditions: FER
full kinase panel [10] = molecular target: full kinase panel (Homo sapiens, UniProt P21709); conditions: EPHA1
full kinase panel [11] = molecular target: full kinase panel (Homo sapiens, UniProt P22455); conditions: FGFR4
full kinase panel [12] = molecular target: full kinase panel (Homo sapiens, UniProt P22607); conditions: FGFR3
full kinase panel [13] = molecular target: full kinase panel (Homo sapiens, UniProt P29317); conditions: EPHA2
full kinase panel [14] = molecular target: full kinase panel (Homo sapiens, UniProt P29322); conditions: EPHA8
full kinase panel [15] = molecular target: full kinase panel (Homo sapiens, UniProt P29323); conditions: EPHB2
full kinase panel [16] = molecular target: full kinase panel (Homo sapiens, UniProt P29597); conditions: TYK2
full kinase panel [17] = molecular target: full kinase panel (Homo sapiens, UniProt P35916); conditions: FLT4/VEGFR3
full kinase panel [18] = molecular target: full kinase panel (Homo sapiens, UniProt P36888); conditions: FLT3
full kinase panel [19] = molecular target: full kinase panel (Homo sapiens, UniProt P42680); conditions: TEC
full kinase panel [20] = molecular target: full kinase panel (Homo sapiens, UniProt P51813); conditions: BMX/ETK
full kinase panel [21] = molecular target: full kinase panel (Homo sapiens, UniProt P52333); conditions: JAK3
full kinase panel [22] = molecular target: full kinase panel (Homo sapiens, UniProt P53667); conditions: LIMK1
full kinase panel [23] = molecular target: full kinase panel (Homo sapiens, UniProt P53671); conditions: LIMK2
full kinase panel [24] = molecular target: full kinase panel (Homo sapiens, UniProt P54753); conditions: EPHB3
full kinase panel [25] = molecular target: full kinase panel (Homo sapiens, UniProt P54756); conditions: EPHA5
full kinase panel [26] = molecular target: full kinase panel (Homo sapiens, UniProt P54760); conditions: EPHB4
full kinase panel [27] = molecular target: full kinase panel (Homo sapiens, UniProt Q06187); conditions: BTK
full kinase panel [28] = molecular target: full kinase panel (Homo sapiens, UniProt Q07912); conditions: ACK1
full kinase panel [29] = molecular target: full kinase panel (Homo sapiens, UniProt Q13882); conditions: BRK
full kinase panel [30] = molecular target: full kinase panel (Homo sapiens, UniProt Q15759); conditions: P38B/MAPK11
full kinase panel [31] = molecular target: full kinase panel (Homo sapiens, UniProt Q16584); conditions: MLK3/MAP3K11
full kinase panel [32] = molecular target: full kinase panel (Homo sapiens, UniProt Q8N4C8); conditions: MINK/MINK1
full kinase panel [33] = molecular target: full kinase panel (Homo sapiens, UniProt Q9H1R3); conditions: MLCK2/MYLK2
full kinase panel [34] = molecular target: full kinase panel (Homo sapiens, UniProt Q9H2G2); conditions: SLK/STK2
full kinase panel [35] = molecular target: full kinase panel (Homo sapiens, UniProt Q9H2K8); conditions: TAOK3/JIK
full kinase panel [36] = molecular target: full kinase panel (Homo sapiens, UniProt Q9H3Y6); conditions: SRMS
full kinase panel [37] = molecular target: full kinase panel (Homo sapiens, UniProt Q9NY57); conditions: STK32B/YANK2
full kinase panel [38] = molecular target: full kinase panel (Homo sapiens, UniProt Q9UL54); conditions: TAOK2/TAO1
full kinase panel [39] = molecular target: full kinase panel (Homo sapiens, UniProt Q9Y2K2); conditions: SIK3
full kinase panel [40] = molecular target: full kinase panel (Homo sapiens, UniProt Q9Y4K4); conditions: KHS/MAP4K5
full kinase panel [41] = conditions: LYN B

For `Cc1cn(-c2cc(C(=O)Nc3ccc(C)c(N4Cc5cnc(NC6CC6)nc5C5(CC5)C4=O)c3)cc(C(F)(F)F)c2)cn1`, the “kinase inhibition (residual enzyme activity)” value (full kinase panel [1]) was “◯ (residual enzyme activity values were 40% or less, i.e., inhibited by 60% or more)”, the “kinase inhibition (residual enzyme activity)” value (full kinase panel [2]) was “◯ (residual enzyme activity values were 40% or less, i.e., inhibited by 60% or more)” and the “kinase inhibition (residual enzyme activity)” value (full kinase panel [3]) was “◯ (residual enzyme activity values were 40% or less, i.e., inhibited by 60% or more)”. The “kinase inhibition (residual enzyme activity)” value (full kinase panel [4]) was “◯ (residual enzyme activity values were 40% or less, i.e., inhibited by 60% or more)”, the “kinase inhibition (residual enzyme activity)” value (full kinase panel [5]) was “◯ (residual enzyme activity values were 40% or less, i.e., inhibited by 60% or more)” and the “kinase inhibition (residual enzyme activity)” value (full kinase panel [6]) was “◯ (residual enzyme activity values were 40% or less, i.e., inhibited by 60% or more)”. The “kinase inhibition (residual enzyme activity)” value (full kinase panel [7]) was “◯ (residual enzyme activity values were 40% or less, i.e., inhibited by 60% or more)”, the “kinase inhibition (residual enzyme activity)” value (full kinase panel [8]) was “◯ (residual enzyme activity values were 40% or less, i.e., inhibited by 60% or more)” and the “kinase inhibition (residual enzyme activity)” value (full kinase panel [9]) was “◯ (residual enzyme activity values were 40% or less, i.e., inhibited by 60% or more)”. The “kinase inhibition (residual enzyme activity)” value (full kinase panel [10]) was “◯ (residual enzyme activity values were 40% or less, i.e., inhibited by 60% or more)”, the “kinase inhibition (residual enzyme activity)” value (full kinase panel [11]) was “◯ (residual enzyme activity values were 40% or less, i.e., inhibited by 60% or more)” and the “kinase inhibition (residual enzyme activity)” value (full kinase panel [12]) was “◯ (residual enzyme activity values were 40% or less, i.e., inhibited by 60% or more)”. For the same compound, the “kinase inhibition (residual enzyme activity)” value (full kinase panel [13]) was “◯ (residual enzyme activity values were 40% or less, i.e., inhibited by 60% or more)”, the “kinase inhibition (residual enzyme activity)” value (full kinase panel [14]) was “◯ (residual enzyme activity values were 40% or less, i.e., inhibited by 60% or more)” and the “kinase inhibition (residual enzyme activity)” value (full kinase panel [15]) was “◯ (residual enzyme activity values were 40% or less, i.e., inhibited by 60% or more)”. The “kinase inhibition (residual enzyme activity)” value (full kinase panel [16]) was “◯ (residual enzyme activity values were 40% or less, i.e., inhibited by 60% or more)”, the “kinase inhibition (residual enzyme activity)” value (full kinase panel [17]) was “◯ (residual enzyme activity values were 40% or less, i.e., inhibited by 60% or more)” and the “kinase inhibition (residual enzyme activity)” value (full kinase panel [18]) was “◯ (residual enzyme activity values were 40% or less, i.e., inhibited by 60% or more)”. The “kinase inhibition (residual enzyme activity)” value (full kinase panel [19]) was “◯ (residual enzyme activity values were 40% or less, i.e., inhibited by 60% or more)”, the “kinase inhibition (residual enzyme activity)” value (full kinase panel [20]) was “◯ (residual enzyme activity values were 40% or less, i.e., inhibited by 60% or more)” and the “kinase inhibition (residual enzyme activity)” value (full kinase panel [21]) was “◯ (residual enzyme activity values were 40% or less, i.e., inhibited by 60% or more)”. The “kinase inhibition (residual enzyme activity)” value (full kinase panel [22]) was “◯ (residual enzyme activity values were 40% or less, i.e., inhibited by 60% or more)”, the “kinase inhibition (residual enzyme activity)” value (full kinase panel [23]) was “◯ (residual enzyme activity values were 40% or less, i.e., inhibited by 60% or more)” and the “kinase inhibition (residual enzyme activity)” value (full kinase panel [24]) was “◯ (residual enzyme activity values were 40% or less, i.e., inhibited by 60% or more)”. The “kinase inhibition (residual enzyme activity)” value (full kinase panel [25]) was “◯ (residual enzyme activity values were 40% or less, i.e., inhibited by 60% or more)”, the “kinase inhibition (residual enzyme activity)” value (full kinase panel [26]) was “◯ (residual enzyme activity values were 40% or less, i.e., inhibited by 60% or more)” and the “kinase inhibition (residual enzyme activity)” value (full kinase panel [27]) was “◯ (residual enzyme activity values were 40% or less, i.e., inhibited by 60% or more)”. For the same compound, the “kinase inhibition (residual enzyme activity)” value (full kinase panel [28]) was “◯ (residual enzyme activity values were 40% or less, i.e., inhibited by 60% or more)”, the “kinase inhibition (residual enzyme activity)” value (full kinase panel [29]) was “◯ (residual enzyme activity values were 40% or less, i.e., inhibited by 60% or more)” and the “kinase inhibition (residual enzyme activity)” value (full kinase panel [30]) was “◯ (residual enzyme activity values were 40% or less, i.e., inhibited by 60% or more)”. For the same compound, the “kinase inhibition (residual enzyme activity)” value (full kinase panel [31]) was “◯ (residual enzyme activity values were 40% or less, i.e., inhibited by 60% or more)”, the “kinase inhibition (residual enzyme activity)” value (full kinase panel [32]) was “◯ (residual enzyme activity values were 40% or less, i.e., inhibited by 60% or more)” and the “kinase inhibition (residual enzyme activity)” value (full kinase panel [33]) was “◯ (residual enzyme activity values were 40% or less, i.e., inhibited by 60% or more)”. The “kinase inhibition (residual enzyme activity)” value (full kinase panel [34]) was “◯ (residual enzyme activity values were 40% or less, i.e., inhibited by 60% or more)”, the “kinase inhibition (residual enzyme activity)” value (full kinase panel [35]) was “◯ (residual enzyme activity values were 40% or less, i.e., inhibited by 60% or more)” and the “kinase inhibition (residual enzyme activity)” value (full kinase panel [36]) was “◯ (residual enzyme activity values were 40% or less, i.e., inhibited by 60% or more)”. The “kinase inhibition (residual enzyme activity)” value (full kinase panel [37]) was “◯ (residual enzyme activity values were 40% or less, i.e., inhibited by 60% or more)”, the “kinase inhibition (residual enzyme activity)” value (full kinase panel [38]) was “◯ (residual enzyme activity values were 40% or less, i.e., inhibited by 60% or more)” and the “kinase inhibition (residual enzyme activity)” value (full kinase panel [39]) was “◯ (residual enzyme activity values were 40% or less, i.e., inhibited by 60% or more)”. The “kinase inhibition (residual enzyme activity)” value (full kinase panel [40]) was “◯ (residual enzyme activity values were 40% or less, i.e., inhibited by 60% or more)” and the “kinase inhibition (residual enzyme activity)” value (full kinase panel [41]) was “◯ (residual enzyme activity values were 40% or less, i.e., inhibited by 60% or more)”.
